Experiment [1] addresses T1, human C3d (human, UniProt P01024, in part).
T1 construct: domain: C3d; also called C3d antigen
As to the kind of experiment: ELISA, human C3d coated on plate.

Experiment [2] addresses T1, human C3d. Description: SPR (Biacore 3000), human C3d amine-coupled to CM5 chip, construct as analyte.

Positions count from the first letter of the chain named.

B1: Exemplary Fusion Construct 97 (other)
heavy: QVQLVQSGAEVKKPGASVKVSCKASGYTFTNYYINWVRQAPGQGLEWMGVINPYSGGTSYNQKFKGRVTMTVDTSTSTAYMELSSLRSEDTAVYFCSSPYWGQGTLVTVSSASTKGPSVFPLAPCSRSTSESTAALGCLVKDYFPEPVTVSWNSGALTSGVHTFPAVLQSSGLYSLSSVVTVPSSSLGTKTYTCNVDHKPSNTKVDKRVESKYGPPCPPCPAPEFEGGPSVFLFPPKPKDTLMISRTPEVTCVVVDVSQEDPEVQFNWYVDGVEVHNAKTKPREEQFNSTYRVVSVLTVLHQDWLNGKEYKCKVSNKGLPSSIEKTISKAKGQPREPQVYTLPPSQEEMTKNQVSLTCLVKGFYPSDIAVEWESNGQPENNYKTTPPVLDSDGSFFLYSRLTVDKSRWQEGNVFSCSVLHEALHSHYTQKSLSLSLGGGGGSGGGGSEDCNELPPRRNTEILTGSWSDQTYPEGTQAIYKCRPGYRSLGNVIMVCRKGEWVALNPLRKCQKRPCGHPGDTPFGTFTLTGGNVFEYGVKAVYTCNEGYQLLGEINYRECDTDGWTNDIPICEVVKCLPVTAPENGKIVSSAMEPDREYHFGQAVRFVCNSGYKIEGDEEMHCSDDGFWSKEKPKCVEISCKSPDVINGSPISQKIIYKENERFQYKCNMGYEYSERGDAVCTESGWRPLPSCEEKSCDNPYIPNGDYSPLRIKHRTGDEITYQCRNGFYPATRGNTAKCTSTGWIPAPRCTLK
light: DVVMTQSPLSLPVTLGQPASISCKSSQSLLDSDGKTYLNWFQQRPGQSPRRLIYLVSKLDSGVPDRFSGSGSGTDFTLKISRVEAEDVGVYYCWQGTHFPRTFGGGTKVEIKRTVAAPSVFIFPPSDEQLKSGTASVVCLLNNFYPREAKVQWKVDNALQSGNSQESVTEQDSKDSTYSLSSTLTLSKADYEKHKVYACEVTHQGLSSPVTKSFNRGEC
In the case of B1, the EC50 (as a rule, the concentration that produces a half-maximal response) with human C3d [1] turned out to be 0.074 nM. For the same molecule, binding with human C3d [2] was characterised by a dissociation constant (Kd) of 11.9 nM.

B2: Exemplary Fusion Construct 135 (other)
heavy: B1 heavy with V2H, T30H, T74H
light: B1 light
For the molecule B2, the EC50 with human C3d [1] amounted to 0.06 nM. In addition, the Kd – broadly, the constant that tells how readily two partners part at equilibrium – with human C3d [2] came out at 38.9 nM.

B3: Exemplary Fusion Construct 146 (other)
heavy: B1 heavy with L419M, S425N
light: B1 light
notes: Order heavy chain, linker, modulator follows claim 321 (2)
Regarding B3, in the experiment with human C3d [1], the EC50 was 0.061 nM.

The record behind these values is patent US20240301043A1 (Q32 BIO, published 2024).
